## AlphaSeq binding of Ab-14 light chain variants to a spike HR2 peptide

Data: MIT Lincoln Laboratory AlphaSeq set, Li et al. 2023, doi:10.1038/s41467-023-39022-2, as distributed in FLAb.

Target: peptide PDVDLGDISGINAS, taken from heptad repeat 2 (HR2) of SARS-CoV-2 spike.

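The parent was found by panning a naive human phage display library on the peptide. The variants were designed computationally from a first round of random CDR variants and then made and measured. Their group label is 14L_GP_Gibbs (GP: Gaussian process model; Gibbs: Gibbs sampling; a sequence that several methods proposed may carry one label only). In AlphaSeq, yeast of one mating type display the scFv and yeast of the other type display the target. Binding brings cells together so that they mate, and sequencing counts the barcode pairs among the diploids. The ratio of observed to expected reads was calibrated, replicate by replicate, on BCL2-family standards whose Kd was known from biolayer interferometry. The assay was run in six technical replicates.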

Each scFv is VH, the linker GGGGSGGGGSGGGGS, VL, as in the parent Ab-14, and differs from it in the CDRs of the light chain only.
VH: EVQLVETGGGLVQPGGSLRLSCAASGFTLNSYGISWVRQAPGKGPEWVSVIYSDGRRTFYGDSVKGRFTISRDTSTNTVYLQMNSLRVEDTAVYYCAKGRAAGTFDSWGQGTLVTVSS
VL: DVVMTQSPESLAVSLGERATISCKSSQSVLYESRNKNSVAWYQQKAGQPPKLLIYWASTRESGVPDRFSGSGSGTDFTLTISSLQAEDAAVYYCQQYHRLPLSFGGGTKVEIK

Variants are written as CDR1, CDR2 and CDR3 of the light chain (limits as in the source). Parent: KSSQSVLYESRNKNSVA, WASTRES, QQYHRLPLS.
Scale: log10 of Kd in nM, estimated from mating counts; low values are strong binders.
Replicates are averaged; those with no signal do not enter the mean.

CDR-L1,CDR-L2,CDR-L3,"log10 Kd, replicates","log10 Kd (nM), mean",signal with controls
KIQQSEQYESRNKNSVA,NASDRQS,QQYHRLPLS,0.58 0.19 0.72 0.41 0.09 0.49,0.41,1 of 18 (1.90)
KLQMSAEYQSRNKNSVA,SASTREA,QQYHRLPLS,-0.64 -0.89 -0.72 -0.76 -0.82 -0.67,-0.75,0 of 18
KVSQSVGYGSRNKWSVA,EASTRES,QQYHRLPLS,1.65 0.78 0.88 0.73 0.90 0.72,0.94,0 of 18
KISQSVGYESRNKNSIA,NASQRMQ,QQYHRLPLS,0.08 -0.15 -0.11 -0.34 -0.15 0.17,-0.08,1 of 18 (2.20)
KLQQGVEMESRNKNSVA,NASKREE,QQYHRLPLS,-0.11 0.24 -0.13 -0.12 0.01 -0.27,-0.06,1 of 18 (3.01)
KMAQSVEVLSRNKNSVA,NASTREM,QQYHRLPLS,0.17 0.03 0.03 -0.01 -0.23 0.19,0.03,1 of 18 (2.49)
KSSISQDYEDRNQNSVA,SASQREH,QQYHRLPLS,0.94 0.51 0.11 0.75 0.67 0.67,0.61,2 of 18 (3.01)
KLSQSVLMESRMVNNVA,EASQREE,QQYHRLPLS,0.05 0.15 0.15 0.29 0.22 0.29,0.19,2 of 18 (2.14)
KLSNSVWMESRNKNNVA,EASKRES,QQYHRLPLS,0.00 -0.32 -0.45 -0.51 -0.39 -0.18,-0.31,1 of 18 (2.24)
KMSQSVDVLSRNKNSVA,NASTREM,QQYHRLPLS,0.31 -0.09 -0.24 -0.41 -0.39 0.32,-0.08,0 of 18
KVDQEVDGQSRNKNSVA,DASQREE,QQYHRLPLS,0.12 -0.26 -0.25 -0.09 -0.24 0.06,-0.11,1 of 18 (2.37)
KLSTSWLYGKRNKNSVA,QASLRES,QQYHRLPLS,1.99 1.55 2.41 1.80 1.17 1.60,1.75,0 of 18
HWSWSVDDESRNDNSVA,DASTRED,QQYHRLPLS,0.43 0.31 0.26 0.23 0.34 0.33,0.32,0 of 18
KLSPSVLGMSRAKNSVA,NASTRES,QQYHRLPLS,-0.31 -0.28 -0.16 -0.62 -0.57 -0.06,-0.33,0 of 18
KLSQSNDYEDRNANNVA,NASQRES,QQYHRLPLS,-0.23 -0.04 -0.45 -0.49 -0.22 -0.10,-0.25,0 of 18
LWSQSDLLESRNHNSVA,HASTRCS,QQYHRLPLS,1.16 1.05 0.93 1.03 0.78 1.38,1.05,0 of 18
KVEQLVDPKDRNSNSVA,NASTRES,QQYHRLPLS,0.05 0.05 0.07 -0.16 -0.06 0.09,0.01,4 of 18 (2.82)
KLSQDALYESRNKNSVA,QASTREV,QQYHRLPLS,-0.14 -0.31 -0.02 -0.36 -0.27 -0.22,-0.22,0 of 18
KLSQDVCYGDRNKNSVA,NASTREQ,QQYHRLPLS,-0.30 -0.35 -0.57 -0.41 -0.59 -0.29,-0.42,1 of 18 (2.38)
HFSQSQPYESRMFNSVA,NASLRFS,QQYHRLPLS,0.57 0.67 0.36 0.37 0.36 0.45,0.46,0 of 18
KLSQSNGYESRLANNVA,NASTRLE,QQYHRLPLS,0.39 0.40 0.44 0.52 0.34 0.35,0.41,1 of 18 (2.40)
KLSQSVWYESRLKNSVA,NASTRMY,QQYHRLPLS,0.18 0.02 0.24 0.32 0.19 0.26,0.20,0 of 18
KHSISVMREDRNKNSVA,DASQRES,QQYHRLPLS,0.31 0.15 0.07 0.06 0.20 0.37,0.19,1 of 18 (2.94)
KLMQSVMGWMRNKNSVA,NASTRES,QQYHRLPLS,0.23 0.11 0.00 0.18 -0.06 0.52,0.16,1 of 18 (2.54)
KLSWSMLYESRNWNSVA,DASTRES,QQYHRLPLS,-0.21 0.04 -0.32 -0.45 -0.35 0.02,-0.21,0 of 18
KFEQSWLYESRNGNSVA,QASTRSS,QQYHRLPLS,-0.20 -0.06 -0.07 -0.37 -0.28 -0.17,-0.19,2 of 18 (1.89)
KLHQSWLYLSRNHNAVA,HASQRCS,QQYHRLPLS,2.00 1.62 1.56 1.10 1.41 1.54,1.54,2 of 18 (2.20)
KLSPSVGGESRNKNSVA,EASTREQ,QDYHRLPLS,0.24 -0.29 -0.22 -0.37 -0.29 -0.03,-0.16,0 of 18
KVSNSVDGQDRNKNAVA,EASTRES,QQYHRLPLS,0.35 0.01 -0.06 0.02 -0.02 0.19,0.08,0 of 18
KLSGSWLYQSRNSNAVA,EASQREQ,QDYHRLPLS,0.12 0.08 1.23 0.10 0.05 0.55,0.36,1 of 18 (2.01)
KMSQSQLYETRNKNSVA,NMSTRES,QQYHRLPLS,0.26 0.01 -0.08 -0.07 -0.16 0.15,0.02,2 of 18 (3.08)
KVMGEMLYESRNKNSVA,HASERES,QQYHRLPLQ,0.68 2.55 1.10 1.70 0.66 1.55,1.38,0 of 18
KVSQSNPYESRNANSVA,NASQRCS,QQYHRLPLS,0.66 0.44 0.43 0.39 0.38 0.53,0.47,1 of 18 (3.56)
KLQQSMLYESRWKNSVA,QASQREV,QQYHRLPLS,0.72 0.35 0.78 0.29 0.74 0.57,0.58,2 of 18 (3.30)

The first 3 entries again:

CDR-L1,CDR-L2,CDR-L3,"log10 Kd, replicates","log10 Kd (nM), mean",signal with controls
KIQQSEQYESRNKNSVA,NASDRQS,QQYHRLPLS,0.58 0.19 0.72 0.41 0.09 0.49,0.41,1 of 18 (1.90)
KLQMSAEYQSRNKNSVA,SASTREA,QQYHRLPLS,-0.64 -0.89 -0.72 -0.76 -0.82 -0.67,-0.75,0 of 18
KVSQSVGYGSRNKWSVA,EASTRES,QQYHRLPLS,1.65 0.78 0.88 0.73 0.90 0.72,0.94,0 of 18

The range of this assay differs from that of the first round, and the authors advise against merging the two.
The parent sequence was in this pool as ten entries: three were never detected, three once, and four in most replicates, with averages from 0.34 to 2.37.
The authors' rule: three or more of the six replicates give a measured affinity, fewer mean a poor binder.
Nonspecific signal, from three strains lacking the peptide, appeared in 4% of pairings of all light chain designs, centred on 2.64 (5% of these signals below 1.59); values are not corrected for it. Also given: how often the same scFv was detected with the empty control strains, with their mean in brackets.